Results on one compound are retold here after ChEMBL document CHEMBL1144846, “Herkinorin analogues with differential beta-arrestin-2 interactions” (J Med Chem, 2008).

Sequences of proteins named here, by UniProt entry; tags and fusion partners are left off.
UniProt P35372, whole entry, looked up: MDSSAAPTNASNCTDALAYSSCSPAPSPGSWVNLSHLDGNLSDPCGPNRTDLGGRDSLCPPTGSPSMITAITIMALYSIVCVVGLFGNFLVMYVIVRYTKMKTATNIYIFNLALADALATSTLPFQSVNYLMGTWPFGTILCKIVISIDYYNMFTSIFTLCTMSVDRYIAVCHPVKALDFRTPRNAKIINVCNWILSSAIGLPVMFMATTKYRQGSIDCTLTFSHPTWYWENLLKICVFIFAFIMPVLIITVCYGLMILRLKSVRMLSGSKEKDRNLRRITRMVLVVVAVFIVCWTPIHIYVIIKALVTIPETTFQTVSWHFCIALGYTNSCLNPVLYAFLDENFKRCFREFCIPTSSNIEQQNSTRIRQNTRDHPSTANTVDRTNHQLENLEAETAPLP

This assay deals with Mu-type opioid receptor (Homo sapiens, UniProt P35372). The assay is described as follows: Agonist activity at human recombinant mu opioid receptor expressed in CHO cells by [35S]GTP-gamma-S binding assay relative to DAMGO. It is filed as functional, cell-based.

For the compound `CN(C(=O)Cc1ccc(Cl)c(Cl)c1)C1CCCCC1N1CCCC1` (stereo unspecified), the Emax (usually the greatest response seen or fitted, relative to the assay's reference) turned out to be 35%.
